For the series, the target named is T1, hADM (Homo sapiens, UniProt P35318).
T1 sequence (P35318 95-146 limits assumed): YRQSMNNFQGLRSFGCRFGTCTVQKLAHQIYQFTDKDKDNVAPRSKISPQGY
The experiment in a line: Stability of human Adrenomedullin in human citrate plasma.

A word on the half-life: it is how long it takes for the measured level to halve. The low end stands for rapid decline, the high end for slow decline. As for `CC[C@H](C)[C@H](NC(=O)[C@H](CCC(N)=O)NC(=O)[C@H](Cc1c[nH]cn1)NC(=O)[C@H](C)NC(=O)[C@H](CC(C)C)NC(=O)[C@H](CCCCN)NC(=O)[C@H](CCC(N)=O)NC(=O)[C@@H](NC(=O)[C@@H](NC(=O)[C@@H]1CSSC[C@H](NC(=O)CNC(=O)[C@H](Cc2ccccc2)NC(=O)[C@H](CO)NC(=O)[C@H](CCCNC(=N)N)NC(=O)[C@H](CC(C)C)NC(=O)CNC(=O)[C@H](CCC(N)=O)NC(=O)[C@H](Cc2ccccc2)NC(=O)[C@H](CC(N)=O)NC(=O)[C@H](CC(N)=O)NC(=O)[C@H](CCSC)NC(=O)[C@H](CO)NC(=O)[C@H](CCC(N)=O)NC(=O)[C@H](CCCNC(=N)N)NC(=O)[C@@H](N)Cc2ccc(O)cc2)C(=O)N[C@@H](CCCNC(=N)N)C(=O)N[C@@H](Cc2ccccc2)C(=O)NCC(=O)N[C@@H]([C@@H](C)O)C(=O)N1)[C@@H](C)O)C(C)C)C(=O)N[C@@H](Cc1ccc(O)cc1)C(=O)N[C@@H](CCC(N)=O)C(=O)N[C@@H](Cc1ccccc1)C(=O)N[C@H](C(=O)N[C@@H](CC(=O)O)C(=O)N[C@@H](CCCCN)C(=O)N[C@@H](CC(=O)O)C(=O)N[C@@H](CCCCN)C(=O)N[C@@H](CC(=O)O)C(=O)N[C@@H](CC(N)=O)C(=O)N[C@H](C(=O)N[C@@H](C)C(=O)N1CCC[C@H]1C(=O)N[C@@H](CCCNC(=N)N)C(=O)N[C@@H](CO)C(=O)N[C@@H](CCCCN)C(=O)N[C@H](C(=O)N[C@@H](CO)C(=O)N1CCC[C@H]1C(=O)N[C@@H](CCC(N)=O)C(=O)NCC(=O)N[C@@H](Cc1ccc(O)cc1)C(N)=O)[C@@H](C)CC)C(C)C)[C@@H](C)O` [hADM], the half-life at 10 nM was 7.8 h.
